Tested on: Gram-positive and Gram-negative bacterial species
Test: Broth microdilution MIC, panel summary
Assay type: cell-based
Details: read-out: MIC values
Protocol: To determine whether DHDPS inhibitors were plant-specific, compounds 1, 3 and 5 were selected and tested against a panel of Gram-positive and Gram-negative bacteria.
Assays were carried out by a broth microdilution method using a 96-well plate according to guidelines defined by the European Committee on Antimicrobial Susceptibility Testing as described here. Overnight cultures of strains were grown in tryptic soy broth (TSB) at 37° C. The overnight cultures were diluted to a concentration of 1×10^6 bacteria/ml (OD600=0.01) in TSB media. To each well on 96 well plates, 100 μl of bacterially infected media at a concentration of 1×10^6/ml and compounds at various concentrations were added. An uninfected control (i.e. no bacteria) was also included. The plates were incubated at 37° C. wrapped in parafilm for 20 hrs. The growth was assessed by measuring the absorbance at 600 nm. The minimum inhibitory concentration (MIC) was determined to be the lowest concentration of compound that inhibits visible bacterial growth.

**Q.** With `COc1ccc(/C=C2\SC(=O)N(CC(=O)O)C2=O)cc1` [Compound 5, (Z)-2-(5-(4-Methoxybenzylidene)-2,4-dioxothiazolidin-3-yl)acetic Acid] as the compound, how does the MIC read?
**A.** The MIC was > 64 µg/mL.
